One substance from patent US11193004B2, “Phosphoric ester preparations with reduced hygroscopicity” (LANXESS Deutschland GmbH, priority 2013, dated 2021) can be followed below.

The series in a line: Solubility in water of phosphoric esters b).

For the substance “tert-Butylated triphenyl phosphate [TBPP]”, the “Solubility in water at 25° C.” value worked out at 2.7 µg/mL.
